Source: US20120022116A1, “COMPOSITIONS AND METHODS FOR THE TREATMENT OF PATHOLOGICAL CONDITION(S) RELATED TO GPR35 AND/OR GPR35-HERG COMPLEX” (priority 2010, published 2012)

Tested on: hERG channel

O=C(O)Cc1ccccc1Nc1c(Cl)cccc1Cl [Diclofenac]
Desenstization to hERG activator: inactive
